pIC50: −log10 of the molar value.
Target: Beta Secretase enzyme (BACE) (Homo sapiens, UniProt P56817)
Assay: In vitro enzymatic BACE FRET (fluorescence resonance energy transfer) assay
Type: biochemical
Settings: average IC50, enzyme assay; read-out: BACE 1 FRET assay

Protein sequences, listed by entry. Tags and fused reporters are not part of them. Residues count along the entry.
UniProt P56817, 46-501, species assumed: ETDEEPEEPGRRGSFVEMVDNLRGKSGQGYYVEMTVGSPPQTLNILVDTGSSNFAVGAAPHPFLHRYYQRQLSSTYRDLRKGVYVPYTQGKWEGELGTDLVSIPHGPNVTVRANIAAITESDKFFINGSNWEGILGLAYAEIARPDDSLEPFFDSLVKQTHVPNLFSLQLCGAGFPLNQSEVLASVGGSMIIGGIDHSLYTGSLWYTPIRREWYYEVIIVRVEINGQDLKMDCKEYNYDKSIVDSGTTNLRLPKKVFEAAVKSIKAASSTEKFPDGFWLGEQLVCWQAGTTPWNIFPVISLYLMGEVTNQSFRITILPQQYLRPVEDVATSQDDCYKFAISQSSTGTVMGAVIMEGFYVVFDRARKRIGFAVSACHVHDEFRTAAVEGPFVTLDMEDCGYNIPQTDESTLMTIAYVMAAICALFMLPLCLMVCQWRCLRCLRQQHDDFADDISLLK

Substance: 2′-amino-9-fluoro-7-((3-methyl-3-oxetanyl)ethynyl)spiro[chromeno[2,3-c]pyridine-5,4′-[1,3]oxazol]-3-yl)benzonitrile [Example 694]
- pIC50: 7.76
